Earlier results on 1 molecule are cited in patent US5770363A, “Methods for diagnosing human male infertility” (priority 1995, dated 1998).

The test system of this data set is rats. The settings on record: cited from earlier work.
[1] abbreviates: males treated with 1,3-dinitrobenzene.

Consider `O=[N+]([O-])c1cccc([N+](=O)[O-])c1`, for which the fertility entry (1.5 mg/kg/day for 10 weeks, rats) is on record as “diminished”. In addition, the effect on spermatogenesis result (1.5 mg/kg/day for 10 weeks, rats, normal sperm counts) is reported as “does not significantly inhibit spermatogenesis”. Under setting [1], the “implantation sites in female rats mated to treated males” value is reported as “no implantation sites were found” and the “vaginal smears from female rats mated to treated males” value was “sperm-positive”.
